Molecules are shown by their SMILES. The list shows a part of the results, in another mix than the full data. Some salts and complexes are drawn in separate pieces, as the source files them; their charges need not balance. Activity calls are given as the source filed them. Calls come from the whole dose curve; as a rule, active = well fitted activation curve with a large enough effect; inconclusive = small, poorly fitted or top-dose-only effect; inactive = no such curve, though single readings can be large or run the other way.

A short description of the experiment: qHTS Assay for Compounds that Induce Erasure of Genomic Imprints.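 Note: 0% = negative control wells on the plate.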 The following applies: mouse ES Peg3-LacZ reporter, beta-gal luminescence, 40 h; at 60.7 µM (top of the series) unless noted. (In general: qHTS replaces the single test concentration by a dilution series.)
Turning to `O=[N+]([O-])[O-].[NH4+]`, the activity change, positive = activation is inactive: 0.3%.

Turning to `Cc1ccc(NP(C)(=O)Oc2ccccc2)c(C)c1` (centres undefined), the activity change, positive = activation is inactive: -10%.

As to `COc1ccccc1OP(C)(=O)Nc1ccc(C)cc1` (centres undefined), the activity change, positive = activation is inactive: -11.4%.

For the compound `N1=C(c2nnc(-c3nn[nH]n3)nn2)NNN1`, the activity change, positive = activation was inactive: 1.86% [at 10.9 µM].

For `CP(=S)(Nn1cnnc1)Oc1ccccc1` (centres undefined), the activity change, positive = activation was inactive: 3.16%.

As to `CP(=O)(NC(=O)Nc1ccccc1)Oc1ccccc1` (centres undefined), the activity change, positive = activation was inactive: -2.25%.

For `[Au].[Au].c1ccc([PH+](c2ccccc2)c2ccccc2)cc1.c1ccc([PH+](c2ccccc2)c2ccccc2)cc1.n1n[nH]c(-c2nnn[nH]2)n1`, the activity change, positive = activation was inactive: -25% [at 10.9 µM].

On to `CCOP(C)(=S)SCC(=O)NC(C)C(=O)O` (centres undefined), for which the activity change, positive = activation is inactive: 9.78%.

With `Cc1nc2ccc3ccccc3c2s1.O=[N+]([O-])c1cc([N+](=O)[O-])c(O)c([N+](=O)[O-])c1`, the activity change, positive = activation is inactive: -3.32%.

On to `O=[N+]([O-])c1cccc([N+](=O)[O-])c1`, for which the activity change, positive = activation was inactive: -0.662%.

For the compound `Cc1ccc([N+](=O)[O-])cc1[N+](=O)[O-]`, the activity change, positive = activation was inactive: -1.03%.

As for `O=[N+]([O-])OCC(CO[N+](=O)[O-])(CO[N+](=O)[O-])CO[N+](=O)[O-]`, the activity change, positive = activation was inactive: -4.38%.

Turning to `Cc1ccc(C)c(NP(C)(=O)Oc2ccccc2)c1` (centres undefined), the activity change, positive = activation was inactive: -8.28%.

On to `CP(=O)(Nc1ccccc1F)Oc1ccccc1` (centres undefined), for which the activity change, positive = activation is inactive: -1.09%.

Regarding `Cc1cccc([N+](=O)[O-])c1[N+](=O)[O-]`, the activity change, positive = activation is inactive: 6.19%.

On to `CCC(C)(OO)OOC(C)(CC)OO` (centres undefined), for which the activity change, positive = activation was inactive: -4.95%.

Turning to `CN(C)CCOC(=O)C(O)(c1ccccc1)C1CCCCC1` (centres undefined), the activity change, positive = activation is inactive: -3.8%.

With `Cc1c([N+](=O)[O-])cccc1[N+](=O)[O-]`, the activity change, positive = activation was inactive: 6.49%.

As to `Cc1ccc([N+](=O)[O-])c([N+](=O)[O-])c1`, the activity change, positive = activation was inactive: -1.9%.

On to `CCOP(C)(=S)SCC(=O)NC(C)(CC)C(=O)O` (centres undefined), for which the activity change, positive = activation is inactive: -14.8%.

In the case of `CCOP(=O)(CC)OCC`, the activity change, positive = activation is inactive: 1.9%.

As for `[NH4+].[O-][Cl+3]([O-])([O-])[O-]`, the activity change, positive = activation was inactive: 1.05%.

As for `Cc1ccccc1NP(C)(=O)Nc1ccccc1C`, the activity change, positive = activation is inactive: 2.47%.

`CCN(CCCl)Cc1ccccc1C`: the activity change, positive = activation was inactive: -13.4%.

As for `NNC(NN)NN.n1nc(-c2nn[nH]n2)n[nH]1`, the activity change, positive = activation was inactive: -6.49% [at 10.9 µM].

For the compound `CP(=O)(Nc1ccc2c(c1)OCCO2)Oc1ccccc1` (centres undefined), the activity change, positive = activation was inactive: 2.74%.

`OCCSCCO`: the activity change, positive = activation was inactive: -1.37%.

Take `COc1ccccc1OP(C)(=O)Nc1c(C)n(C)n(-c2ccccc2)c1=O` (centres undefined): the activity change, positive = activation was inactive: -0.924%.

For the compound `CP(=O)(Oc1ccccc1)N1CCOC1=O` (centres undefined), the activity change, positive = activation was inactive: -2.66%.

In the case of `N#[O+].[C-]#N.[C-]#N.[C-]#N.[C-]#N.[C-]#N.[Fe+2].[Na+].[Na+]`, the activity change, positive = activation is inactive: -2.88%.

As to `C/C1=C2N=C(/C=C3N=C(/C(C)=C4\[N-][C@@](C)([C@H]5N=C1[C@@](C)(CCC(=O)NC[C@H](C)OP(=O)([O-])O[C@@H]1[C@H](O)[C@H](n6cnc7cc(C)c(C)cc76)O[C@@H]1CO)[C@@H]5CC(N)=O)[C@](C)(CC(N)=O)[C@H]4CCC(N)=O)[C@@](C)(CC(N)=O)[C@@H]\3CCC(N)=O)C(C)(C)[C@@H]/2CCC(N)=O.[C-]#N.[Co+3]`, the activity change, positive = activation is inactive: -47.8% [at 16.8 µM].

On to `COc1ccccc1OP(C)(=O)Nc1ccc(C)c(C)c1` (centres undefined), for which the activity change, positive = activation was inactive: -4.3%.

For the compound `Cc1nc2ccc3ccccc3c2o1.O=[N+]([O-])c1cc([N+](=O)[O-])c(O)c([N+](=O)[O-])c1`, the activity change, positive = activation is inactive: -33.5%.

As to `CP(=O)(Nc1ccccn1)Oc1ccccc1` (centres undefined), the activity change, positive = activation was inactive: -2.06%.

(Values after PubChem BioAssay AID1948 (National Center for Advancing Translational Sciences (NCATS), 2009).)
